Laboratory results published in ChEMBL document CHEMBL2169869, “Assay and inhibition of diacylglycerol lipase activity” (Bioorg Med Chem Lett, 2012).

Chains of the proteins cited; added tags and fusions are not shown.
UniProt Q9Y4D2, whole entry, looked up: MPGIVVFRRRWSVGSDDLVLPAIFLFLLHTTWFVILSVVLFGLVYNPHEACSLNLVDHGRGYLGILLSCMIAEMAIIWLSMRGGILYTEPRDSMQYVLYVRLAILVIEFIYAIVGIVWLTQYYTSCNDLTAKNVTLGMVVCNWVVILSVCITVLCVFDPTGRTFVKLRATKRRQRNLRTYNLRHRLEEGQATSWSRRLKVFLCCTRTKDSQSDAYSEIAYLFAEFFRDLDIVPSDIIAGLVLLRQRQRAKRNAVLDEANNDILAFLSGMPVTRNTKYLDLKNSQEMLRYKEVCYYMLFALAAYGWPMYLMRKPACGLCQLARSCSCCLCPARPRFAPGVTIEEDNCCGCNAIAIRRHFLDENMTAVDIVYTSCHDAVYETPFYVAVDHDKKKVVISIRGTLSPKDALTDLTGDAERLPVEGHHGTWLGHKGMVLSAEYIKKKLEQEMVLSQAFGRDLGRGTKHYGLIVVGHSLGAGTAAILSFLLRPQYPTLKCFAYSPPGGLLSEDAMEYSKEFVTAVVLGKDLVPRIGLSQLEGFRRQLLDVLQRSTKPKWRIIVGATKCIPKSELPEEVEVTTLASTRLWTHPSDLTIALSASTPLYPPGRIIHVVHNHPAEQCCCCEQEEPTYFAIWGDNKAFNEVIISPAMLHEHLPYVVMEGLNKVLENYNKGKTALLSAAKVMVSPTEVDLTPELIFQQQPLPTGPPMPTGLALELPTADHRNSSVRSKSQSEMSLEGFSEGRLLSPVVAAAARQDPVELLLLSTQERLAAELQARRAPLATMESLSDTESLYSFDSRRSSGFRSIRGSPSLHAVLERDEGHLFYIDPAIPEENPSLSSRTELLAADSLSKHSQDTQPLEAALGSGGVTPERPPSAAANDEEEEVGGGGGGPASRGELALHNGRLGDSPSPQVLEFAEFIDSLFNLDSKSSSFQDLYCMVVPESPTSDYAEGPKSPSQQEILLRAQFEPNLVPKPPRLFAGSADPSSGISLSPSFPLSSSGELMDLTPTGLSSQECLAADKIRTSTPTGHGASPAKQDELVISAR

Biological target: Diacylglycerol lipase-alpha (Homo sapiens, UniProt Q9Y4D2)
Assay: Inhibition of human DAGLalpha
Conditions: read-out: IC50(app)

Structure (SMILES): CCCCCCCC/C=C\CCCCCCCC(=O)OC(COC)COP(C)(=O)F (stereo unspecified)
- IC50: 160 nM
